Here are results for 83 compounds from PubChem BioAssay AID720551 (National Center for Advancing Translational Sciences (NCATS), 2013).

The chains behind the UniProt entries cited, without tags or fusion partners.
UniProt Q12809, whole entry: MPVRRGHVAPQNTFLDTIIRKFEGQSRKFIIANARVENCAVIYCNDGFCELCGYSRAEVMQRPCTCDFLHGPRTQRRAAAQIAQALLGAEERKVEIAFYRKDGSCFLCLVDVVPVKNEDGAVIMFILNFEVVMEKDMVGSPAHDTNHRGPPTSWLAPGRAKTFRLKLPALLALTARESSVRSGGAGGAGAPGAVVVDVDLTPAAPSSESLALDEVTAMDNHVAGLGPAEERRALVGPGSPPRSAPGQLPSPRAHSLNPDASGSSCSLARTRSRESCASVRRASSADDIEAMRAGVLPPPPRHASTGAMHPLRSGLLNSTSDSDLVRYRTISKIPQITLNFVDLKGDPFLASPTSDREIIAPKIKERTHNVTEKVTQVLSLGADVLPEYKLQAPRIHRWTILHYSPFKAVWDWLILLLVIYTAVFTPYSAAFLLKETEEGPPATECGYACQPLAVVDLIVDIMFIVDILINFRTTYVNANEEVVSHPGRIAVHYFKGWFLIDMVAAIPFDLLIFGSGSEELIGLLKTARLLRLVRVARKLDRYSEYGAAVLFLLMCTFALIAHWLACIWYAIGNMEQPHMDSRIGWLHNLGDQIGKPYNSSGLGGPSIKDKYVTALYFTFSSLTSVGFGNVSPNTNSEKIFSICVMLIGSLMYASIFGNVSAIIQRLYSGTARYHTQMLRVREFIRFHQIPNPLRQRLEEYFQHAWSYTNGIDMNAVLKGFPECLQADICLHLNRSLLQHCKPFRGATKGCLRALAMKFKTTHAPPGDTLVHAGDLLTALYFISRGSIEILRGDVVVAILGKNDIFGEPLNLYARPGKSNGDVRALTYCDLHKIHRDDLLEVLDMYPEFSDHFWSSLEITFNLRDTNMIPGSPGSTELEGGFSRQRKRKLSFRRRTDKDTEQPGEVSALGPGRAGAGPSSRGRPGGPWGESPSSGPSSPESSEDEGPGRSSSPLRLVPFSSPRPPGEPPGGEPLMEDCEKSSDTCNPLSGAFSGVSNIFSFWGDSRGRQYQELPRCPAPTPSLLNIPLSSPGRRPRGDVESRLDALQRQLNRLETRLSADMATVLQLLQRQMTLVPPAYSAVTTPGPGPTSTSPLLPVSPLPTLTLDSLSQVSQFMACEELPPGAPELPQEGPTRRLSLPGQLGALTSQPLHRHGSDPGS

This is a selection; strong and weak results do not stand in their true shares. Some salts or complexes appear as unconnected parts, following the source record. The source made the active and inactive calls.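 Rule for the calls: active = maximum activity change below -70%; inconclusive = maximum activity change between -70% and -50%; inactive = maximum activity change above -50%.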
% is set by controls: 0 for no effect and ±100 for the full control effect.

The target in the assay is Voltage-gated inwardly rectifying potassium channel KCNH2 (Homo sapiens) (UniProt Q12809). The assay can be described thus: qHTS for Inhibitors of KCHN2 3.1: Wildtype qHTS. Particulars: U2OS, BacMam KCNH2, thallium flux FluxOr; at 1.84 µM; stronger effect = lower value. From the text:
Many antipsychotic drugs that inhibit the neurotransmitter dopamine also bind to hERG1 channel which might help explain their antipsychotic activity but also produces cardiac side effects. The discovery of the novel KCNH2 3.1 isoform offers a potential new target for the development of antipsychotic drugs without cardiac side effects. This proposal will use a high throughput thallium flux assay developed for KCNH2 to screen compounds that modulate the activity of KCNH2 3.1. The wild type KCNH2 channel will also be screened in parallel to help define the selective modulators of this KCNH2 3.1 potassium channel. The resulting compounds will be validated in electrophysiology experiments. The availability of animal models will allow future testing in vivo for effects on memory and other aspects of animal physiology linked with psychosis. NIH Chemical Genomics Center [NCGC] NIH Molecular Libraries Probe Centers Network [MLPCN] MLPCN Grant: MH096539 Assay Submitter (PI): James Barrow, Johns Hopkins University, Lieber Institute for Brain Development
U2OS cells were resuspended in cell media containing 10% fetal calf serum (FCS) at a concentration of 2 million cells / mL. The solution was treated with the Wild-type virus at 2.03 x 10^8 / mL and allowed to incubate at room temperature in the dark. After 4 hours of incubation, DMEM + 10% fetal bovine serum (FBS) was added to the cell solution. Three microliter was then dispensed into a 1536 tissue culture treated black assay plates which were incubated overnight at 37 C. Two microliter of loading buffer (HBSS + HEPES + Red40 dye quencher + FluxOr dye) was added and the assay plates were incubated for 45 min at room temperature in the dark. […] A stimulation buffer was added to the plate and the second kinetic read (2 min) was obtained. The rate constant was calculated from the kinetic reads and normalized to the positive and negative DMSO controls.
Background: In qHTS, concentration-response curves come from the screen itself.
With `CCc1cc(C(=O)NCC2(N3CCCCC3)CCCCC2)sc1C`, the activity change was inactive: 6.45%.
With `O=C(OC1CN2CCC1CC2)C1c2ccccc2C=Cc2ccccc21` (stereo not drawn) the figure was inactive: 3.09%.
With `O=C(O)c1cccc(Nc2c([N+](=O)[O-])cc([N+](=O)[O-])cc2[N+](=O)[O-])c1` the figure was inactive: -14.1%; with `N/C(=N\O)c1c(N)no[n+]1[O-]`, inactive: -3.51%; with `CCOC(=O)N1CCC(Nc2ccc(C)cc2)CC1`, inactive: -5.59%.
The value for `COc1ccc(C(=O)NCC2(N3CCOCC3)CCCCC2)cc1OC` was inactive: 4.37%; that for `O=C(NCC1(N2CCOCC2)CCCCC1)c1cc(Br)ccc1Cl` was inactive: 0.0862%; that for `COc1cc(C(=O)NCC2(N3CCOCC3)CCCCC2)cc(OC)c1C` was inactive: -4.59%.
As to `c1ccc(CN2CCC(Nc3ccccc3)CC2)cc1`, the activity change was inactive: 6.31%.
Regarding `Cc1cc(N(CCCl)CCCl)ccc1C=O`, the activity change was inactive: 7.86%.
With `CCCN1CCC(Nc2cc(OC)cc(OC)c2)CC1` the figure was inactive: -21.5%.
The value for `CN(C)C1(CNC(=O)c2cccc(C#N)c2)CCCCC1` was inactive: 2.94%; that for `CCOC(=O)C(CC)C1=NC(C)(C)Cc2ccccc21.O=[N+]([O-])c1cc([N+](=O)[O-])c(O)c([N+](=O)[O-])c1` (stereo not drawn) was inactive: 0.62%; that for `CC(C)(C)OC(=O)N1CCC(N(C(=O)c2ccccc2)c2ccc(Cl)cc2)CC1` was inactive: 0.597%.
With `N#Cc1ccc(C(=O)NCC2(N3CCCCC3)CCCCC2)cc1` the figure was inactive: 39.1%; with `O=C(NCC1(N2CCCCC2)CCCCC1)c1ccco1`, inactive: -5.73%.
Consider `CN(C)c1ccc(C(=O)NCC2(N3CCCCC3)CCCCC2)cc1`, for which the activity change was inactive: 50.2%.
With `Cn1c(=O)[nH]cc(N(CCCl)CCCl)c1=O` the figure was inactive: -13.1%; with `Cc1ccccc1NC1(C#N)CCN(Cc2ccccc2)CC1`, inactive: -2.46%.
With `CCN1CCC(Nc2cccc(F)c2)CC1` the figure was inactive: -0.425%; with `Cc1ccc(NC2(C#N)CCN(Cc3ccccc3)CC2)cc1`, inactive: 2.67%.
The value for `Cc1ccc(C(=O)NCC2(N3CCCCC3)CCCCC2)o1` was inactive: 32.1%; that for `Fc1ccccc1NC1CCN(Cc2ccccc2)CC1` was inactive: 3.29%; that for `Cc1ccc(Nc2c([N+](=O)[O-])cc([N+](=O)[O-])cc2[N+](=O)[O-])cc1` was inactive: 6.98%.
On to `COc1cc(OC)cc(C(=O)NCC2(N3CCCCC3)CCCCC2)c1`, for which the activity change was inactive: 43.9%.
The value for `CC(=O)N(c1ccccc1)C1CCNCC1` was inactive: -7.1%; that for `CN1CCC(Nc2ccc(Cl)cc2)CC1` was inactive: 20.3%.
With `CCC(CO)(C(=O)OC1CN2CCC1CC2)c1ccccc1` (stereo not drawn) the figure was inactive: 10.2%; with `COc1cc(OC)cc(C(=O)NCC2(N3CCOCC3)CCCCC2)c1`, inactive: -3.74%.
The value for `COc1cccc(C(=O)N(c2cc(C)cc(C)c2)C2CCN(C(=O)OC(C)(C)C)CC2)c1` was inactive: -5.04%; that for `CCCOc1ccc(C(=O)NCC2(N(C)C)CCCCC2)cc1` was inactive: 55.3%; that for `CC(C)(C)OC(=O)N1CCC(Nc2ccccc2)CC1` was inactive: -3.64%.
Regarding `O=C(O)C1(Nc2ccccc2)CCN(Cc2ccccc2)CC1`, the activity change is inactive: 4.09%.
For `CCOc1ncccc1C(=O)NCC1(N2CCOCC2)CCCCC1`, the activity change was inactive: 5.36%.
The value for `CN1CCC(Nc2ccc(F)c(Cl)c2)CC1` was inactive: -0.734%; that for `N#CC1(Nc2ccccc2)CCN(Cc2ccccc2)CC1` was inactive: 3.81%.
As to `O=C(NCC1(N2CCCCC2)CCCCC1)c1ccc(Cl)s1`, the activity change is inactive: 44.6%.
`O=C(OC1CN2CCC1CC2)C1c2ccccc2Oc2ccccc21` (stereo not drawn): the activity change is inactive: 1.74%.
As for `COc1ccc(Cl)cc1C(=O)NCC1(N2CCOCC2)CCCCC1`, the activity change is inactive: 6.43%.
The value for `O=C1C(O)=C([N+](=O)[O-])C(=O)C(O)=C1[N+](=O)[O-]` was inactive: 3.35%; that for `O=C(NCC1(N2CCOCC2)CCCCC1)c1cc2ccccc2o1` was inactive: 5.75%; that for `O=C(NCC1(N2CCCCC2)CCCCC1)c1ccc(Cl)nc1` was inactive: 6.09%.
The value for `Cc1cc(C)cc(N(C(=O)c2ccccc2)C2CCN(C(=O)OC(C)(C)C)CC2)c1` was inactive: -1.17%; that for `CSc1ccccc1C(=O)NCC1(N2CCCCC2)CCCCC1` was inactive: 1.05%; that for `Cc1cccc(NC2(C#N)CCN(Cc3ccccc3)CC2)c1` was inactive: -3.15%.
The value for `O=C(NCC1(N2CCCCC2)CCCCC1)c1ccc(=O)[nH]c1` was inactive: -0.0484%; that for `O=C(NCC1(N2CCCCC2)CCCCC1)c1cccs1` was inactive: 17.8%.
For the compound `COc1ccc(C(=O)NCC2(N3CCCCC3)CCCCC2)cc1`, the activity change was inactive: 4.17%.
The value for `CC(C)(C)OC(=O)N1CCC(N(C(=O)c2ccccc2)c2ccc(F)cc2)CC1` was inactive: 3.79%.
With `COc1ccc(C(=O)NCC2(N3CCCCC3)CCCCC2)c(OC)c1OC` the figure was inactive: 16.5%; with `CCOC(=O)N1CCC(Nc2cccc(C)c2)CC1`, inactive: -4.4%; with `COc1cc(C(=O)NCC2(N(C)C)CCCCC2)ccc1OC(F)F`, inactive: -4.59%.
With `O=P1(N(CCCl)CCCl)SCCCS1` the figure was inactive: -3.38%.
`CCCCOc1ccc(C(=O)NCC2(N3CCOCC3)CCCCC2)cc1`: the activity change is inactive: 48.4%.
`O=C(NCC1(N2CCCCC2)CCCCC1)c1ccc(F)cc1`: the activity change is inactive: 6.58%.
With `COc1ccc(NC2CCN(CCc3ccccc3)CC2)c(OC)c1` the figure was inactive: 36.5%; with `CCOC(=O)N1CCC(Nc2ccc(F)cc2)CC1`, inactive: 2.9%; with `CCOc1ccc(C)cc1CN(CCCl)CCCl`, inactive: 3.11%.
The value for `O=C1CCN(Cc2ccccc2)CC1` was inactive: 0.162%; that for `CN1CCN(CCOC(=O)C(O)(c2ccccc2)c2ccccc2)CC1` was inactive: -9.74%.
The value for `CC(C)c1ccc(C(=O)NCC2(N3CCOCC3)CCCCC2)cc1` was inactive: 13.4%.
`COc1ccc(NC2CCN(C(=O)OC(C)(C)C)CC2)cc1`: the activity change is inactive: 5.22%.
With `COc1cc(C(=O)NCC2(N3CCCCC3)CCCCC2)ccc1OC(F)F` the figure was inactive: 12.9%; with `O=C(NCC1(N2CCOCC2)CCCCC1)c1cc(=O)[nH]c2ccccc12`, inactive: 8.03%.
Regarding `O=C(NCC1(N2CCCCC2)CCCCC1)c1cccc(C(F)(F)F)c1`, the activity change is inactive: 10.9%.
The value for `O=[N+]([O-])c1cc([N+](=O)[O-])c(NCC2CCS(=O)(=O)C2)c([N+](=O)[O-])c1` (stereo not drawn) was inactive: 8.64%.
The value for `CSc1ccc(C(=O)NCC2(N3CCOCC3)CCCCC2)cc1` was inactive: 14.8%.
With `O=C(NCC1(N2CCCCC2)CCCCC1)c1cccc([N+](=O)[O-])c1`, the activity change is inactive: 31.7%.
The value for `CCN1CCC(Nc2ccc(Cl)cc2)CC1` was inactive: 12.8%; that for `N#CC1(Nc2ccccc2)CCN(CCc2ccccc2)CC1` was inactive: -11.2%; that for `Cc1ccc(C(=O)NCC2(N(C)C)CCCCC2)o1` was inactive: 8.68%.
The value for `CCCOc1ccc(C(=O)NCC2(N(C)C)CCCCC2)cc1OC` was inactive: -11.6%; that for `O=[N+]([O-])c1cc([N+](=O)[O-])c(Nc2ccc(Cl)cc2)c([N+](=O)[O-])c1` was inactive: -2.25%; that for `CN1CCC(Nc2cccc(F)c2)CC1` was inactive: 7.78%.
With `COc1ccc2c(c1O)-c1c(O)c(OC)cc3c1[C@H](C2)[N+](C)(C)CC3.O=[N+]([O-])c1cc([N+](=O)[O-])c([O-])c([N+](=O)[O-])c1[O-]` the figure was inactive: 3.86%; with `O=C(NCC1(N2CCCCC2)CCCCC1)c1cncc(Br)c1`, inactive: -19.2%.
In the case of `O=C(OC1CN2CCC1CC2)c1ccc([N+](=O)[O-])cc1` (stereo not drawn), the activity change was inactive: 16.2%.
Consider `COc1cc(OC)c(C(=O)NCC2(N(C)C)CCCCC2)cc1OC`, for which the activity change is inactive: -9.36%.
The value for `O=C(NCC1(N2CCOCC2)CCCCC1)c1cc(F)c(F)cc1Cl` was inactive: 0.474%; that for `COc1ccc(CN(CCCl)CCCl)cc1Cl` was inactive: -13.2%; that for `O=[N+]([O-])c1cc([N+](=O)[O-])c(OC2CCCCC2O)c([N+](=O)[O-])c1` (stereo not drawn) was inactive: -7.12%.
For the compound `CN(C)c1cccc(C(=O)NCC2(N3CCCCC3)CCCCC2)c1`, the activity change is inactive: 3.88%.
With `CC(C)c1ccc(NC2CCN(C(=O)OC(C)(C)C)CC2)cc1` the figure was inactive: -11.9%.
